According to PMC6663879, “Biochemical and structural investigations clarify the substrate selectivity of the 2-oxoglutarate oxygenase JMJD6” (The Journal of Biological Chemistry, 2019):

Molecular target: full-length JMJD6 (JmjC domain-containing protein 6), residues 1–403 (human) (UniProt Q6NYC1)
Assay: native MS; nondenaturing MS of full-length JMJD6; conditions not shown (Fig. S27)

full-length JMJD6 (JmjC domain-containing protein 6), residues 1–403 (from UniProt Q6NYC1 1-403) (enzyme)
stoichiometry N: 2 and 3 and 4

“And” between values parts separate entries of the source, which are not always exact repeats. Equal values may be shown once.
